Only a part is listed here, and it is no random draw. The source made the active and inactive calls.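 Rule for the calls: active = percentage of spot-positive cells more than 3 SD above its plate mean, without a fluorescence outlier flag or 80% toxicity; inconclusive = no clear call, values can overlap the other calls; inactive = the rest.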

The nature of the test: autophagy modulators in MEF cells, primary screen, imaging, high-content, MEF GFP-LC3 (AID 463193).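 Note: spot-positive cell cutoff set from DMSO-treated cells.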 The note with it: MEF GFP-LC3 puncta imaging, at 10 µM, stronger effect = higher value.
On to `COc1ccc(NC2CCN(CCc3ccccc3)CC2)c(OC)c1`, for which the % cells with GFP-LC3 spots is inactive: 5.18%. The value for `COc1ccc(C(=O)NCC2(N3CCCCC3)CCCCC2)c(OC)c1OC` was inactive: 2.75%; that for `O=C(NCC1(N2CCOCC2)CCCCC1)c1cc2ccccc2o1` was inactive: 11.1%; that for `CCOC(=O)N1CCC(Nc2ccc(OC)cc2)CC1` was inactive: 4.48%. The value for `O=C(OC1CN2CCC1CC2)C1c2ccccc2Oc2ccccc21` (stereo not given) was inactive: 31.1%; that for `CN(C)c1cccc(C(=O)NCC2(N3CCCCC3)CCCCC2)c1` was inactive: 1.51%. The value for `COc1ccc(CN(CCCl)CCCl)cc1Cl` was inactive: 1.95%.

With `CC(C)c1ccc(NC2CCN(C(=O)OC(C)(C)C)CC2)cc1`, the % cells with GFP-LC3 spots is inactive: 8.23%. With `CN1CCC(Nc2cccc(F)c2)CC1` the figure was inactive: 2.15%. Take `O=C(NCC1(N2CCCCC2)CCCCC1)c1cccc([N+](=O)[O-])c1`: the % cells with GFP-LC3 spots is inactive: 9.51%. The value for `N#CC1(Nc2ccccc2)CCN(CCc2ccccc2)CC1` was inactive: 0.593%. The value for `CN1CCN(CCOC(=O)C(O)(c2ccccc2)c2ccccc2)CC1` was inactive: 2.67%; that for `COc1ccc(NC2CCN(C(=O)OC(C)(C)C)CC2)cc1` was inactive: 1.71%. In the case of `O=C(NCC1(N2CCOCC2)CCCCC1)c1cc(=O)[nH]c2ccccc12`, the % cells with GFP-LC3 spots was inactive: 6.1%. The value for `N#Cc1ccc(C(=O)NCC2(N3CCCCC3)CCCCC2)cc1` was inactive: 0.573%; that for `c1ccc(CN2CCC(Nc3ccccc3)CC2)cc1` was inactive: 9.35%. With `COc1ccc(C(=O)NCC2(N3CCOCC3)CCCCC2)cc1OC` the figure was inactive: 0.138%; with `N/C(=N\O)c1c(N)no[n+]1[O-]`, inactive: 8.3%. The value for `O=C(OC1CN2CCC1CC2)C1c2ccccc2C=Cc2ccccc21` (stereo not given) was inactive: 17.8%. Turning to `CCOc1ncccc1C(=O)NCC1(N2CCOCC2)CCCCC1`, the % cells with GFP-LC3 spots is inactive: 4.83%.

With `CC(C)(C)OC(=O)N1CCC(Nc2ccccc2)CC1`, the % cells with GFP-LC3 spots was inactive: 0.141%. With `CCC(CO)(C(=O)OC1CN2CCC1CC2)c1ccccc1` (stereo not given) the figure was inactive: 6.51%. Take `COc1cc(OC)cc(C(=O)NCC2(N3CCOCC3)CCCCC2)c1`: the % cells with GFP-LC3 spots is inactive: 10.8%. The value for `CCN1CCC(Nc2cccc(F)c2)CC1` was inactive: 9.12%. The value for `CN(C)c1ccc(C(=O)NCC2(N3CCCCC3)CCCCC2)cc1` was inactive: 0.282%.

The record behind these values is PubChem BioAssay AID463193 (University of Pittsburgh Molecular Library Screening Center, 2010).
